Reference: ChEMBL document CHEMBL5131468, “Systematic comparison of activity and mechanism of antimicrobial peptides against nosocomial pathogens” (Eur J Med Chem, 2022)

Experiments:
Escherichia coli [1] = experiment: Induction of morphological changes in Escherichia coli ATCC 25922 assessed as leakage in intracellular contents at 0.5 times MIC incubated for 90 mins by Helium ion microscopy; assay type: functional, organism-based
Cell membrane [2] = experiment: Induction of membrane depolarization in Escherichia coli ATCC 25922 at 0.5 times MIC after 60 mins by DiOC23 dye based based flow cytometry relative to control
Cell membrane [3] = experiment: Induction of outer membrane permeabilization in Escherichia coli ATCC 25922 assessed as increase in NPN fluorescence intensity incubated for 15 mins by NPN-dye based fluorescence analysis; assay type: subcellular
Staphylococcus aureus [4] = experiment: Induction of morphological changes in Staphylococcus aureus ATCC 29213 assessed as intracellular content leakage by measuring membrane degradation at 0.5 to 2 times MIC incubated for 90 mins by Helium ion microscopy; assay type: functional, organism-based
Escherichia coli [5] = experiment: Induction of morphological changes in Escherichia coli ATCC 25922 assessed as formation of vesicular bodies at 2 times MIC incubated for 90 mins by Helium ion microscopy; assay type: functional, organism-based
Cell membrane [6] = experiment: Induction of membrane depolarization in Salmonella enterica serovar typhimurium SL1344 at 0.5 times MIC after 60 mins by DiOC23 dye based based flow cytometry relative to control; details: Salmonella enterica subsp. enterica serovar Typhimurium
Cell membrane [7] = experiment: Induction of membrane depolarization in Staphylococcus aureus ATCC 29213 at 0.5 times MIC after 60 mins by DiOC23 dye based based flow cytometry relative to control; assay type: subcellular
Cell membrane [8] = experiment: Induction of membrane depolarization in Staphylococcus aureus ATCC 29213 at 0.25 times MIC after 60 mins by DiOC23 dye based based flow cytometry; assay type: subcellular
Cell membrane [9] = experiment: Induction of membrane depolarization in Escherichia coli ATCC 25922 at 0.25 to 0.5 times MIC after 60 mins by DiOC23 dye based based flow cytometry; assay type: subcellular
Escherichia coli [10] = experiment: Induction of morphological changes in Escherichia coli ATCC 25922 at 0.5 times MIC incubated for 90 mins by Helium ion microscopy; assay type: functional, organism-based
Cell membrane [11] = experiment: Induction of membrane depolarization in Salmonella enterica serovar typhimurium SL1344 at 0.25 to 0.5 times MIC after 60 mins by DiOC23 dye based based flow cytometry; assay type: subcellular; details: Salmonella enterica subsp. enterica serovar Typhimurium
Enterococcus faecalis [12] = experiment: Bactericidal activity against Enterococcus faecalis ATCC 29212 incubated for 90 mins by serial dilution assay; assay type: functional; details: ATCC 29212, 1.5 h
Cell membrane [13] = experiment: Induction of outer membrane permeabilization in Salmonella enterica serovar typhimurium SL1344 assessed as increase in NPN fluorescence intensity incubated for 15 mins by NPN-dye based fluorescence analysis; assay type: subcellular; details: Salmonella enterica subsp. enterica serovar Typhimurium
Cell membrane [14] = experiment: Induction of membrane depolarization in Enterococcus faecalis ATCC 29212 at 0.25 times MIC after 60 mins by DiOC23 dye based based flow cytometry; assay type: subcellular
Salmonella typhimurium [15] = experiment: Bactericidal activity against Salmonella enterica serovar typhimurium SL1344 incubated for 90 mins by serial dilution assay; assay type: functional, Salmonella enterica subsp. enterica serovar Typhimurium; details: SL1344, 1.5 h
Staphylococcus aureus [16] = experiment: Bactericidal activity against Staphylococcus aureus ATCC 29213 incubated for 90 mins by serial dilution assay; assay type: functional; details: ATCC 29213, 1.5 h
Staphylococcus aureus [17] = experiment: Bactericidal activity against Methicillin resistant Staphylococcus aureus ATCC 33591 incubated for 90 mins by serial dilution assay; assay type: functional; details: ATCC 33591, 1.5 h
Escherichia coli [18] = experiment: Bactericidal activity against Escherichia coli BAA3051 incubated for 90 mins by serial dilution assay; assay type: functional; details: BAA3051, 1.5 h
Staphylococcus aureus [19] = experiment: Induction of morphological changes in Staphylococcus aureus ATCC 29213 assessed as intracellular content leakage by measuring cell structural component degeneration at 0.5 to 2 times MIC incubated for 90 mins by Helium ion microscopy; assay type: functional, organism-based
Cell membrane [20] = experiment: Induction of inner membrane damage in Staphylococcus aureus ATCC 29213 assessed disruption of membrane integrity at 0.5 to 256 ug/ml and measured after 90 mins by propidium iodide staining based flow cytometry; assay type: subcellular; details: dose 0.5-256 µg/ml
Cell membrane [21] = experiment: Induction of outer membrane permeabilization in Escherichia coli BAA3051 assessed as increase in NPN fluorescence intensity incubated for 15 mins by NPN-dye based fluorescence analysis
Escherichia coli [22] = experiment: Induction of morphological changes in Escherichia coli ATCC 25922 assessed as formation of vesicular bodies at 2 times MBC incubated for 90 mins by Helium ion microscopy; assay type: functional, organism-based
Cell membrane [23] = experiment: Induction of inner membrane damage in Escherichia coli ATCC 25922 assessed disruption of membrane integrity at 0.5 to 256 ug/ml and measured after 90 mins by propidium iodide staining based flow cytometry; assay type: subcellular; details: dose 0.5-256 µg/ml
Staphylococcus aureus [24] = experiment: Antibacterial activity against Methicillin resistant Staphylococcus aureus ATCC 33591 assessed as inhibition of bacterial growth incubated for 90 mins by serial dilution assay; assay type: functional; details: ATCC 33591, 1.5 h
Escherichia coli [25] = experiment: Antibacterial activity against Escherichia coli BAA3051 assessed as inhibition of bacterial growth incubated for 90 mins by serial dilution assay; assay type: functional; details: BAA3051, 1.5 h
Enterococcus faecalis [26] = experiment: Antibacterial activity against Enterococcus faecalis ATCC 29212 assessed as inhibition of bacterial growth incubated for 90 mins by serial dilution assay; assay type: functional; details: ATCC 29212, 1.5 h
Lipid bilayer = experiment: Induction of membrane disruption in Gram-positive bacterial cell membrane mimic POPG:Cardiolipin (9:1) large unilamellar vesicle assessed as carboxyfluorescein leakage by fluorescence analysis
Escherichia coli [27] = experiment: Antibacterial activity against Escherichia coli ATCC 25922 assessed as inhibition of bacterial growth incubated for 90 mins by serial dilution assay; assay type: functional; details: ATCC 25922, 1.5 h
Staphylococcus aureus [28] = experiment: Antibacterial activity against Staphylococcus aureus ATCC 29213 assessed as inhibition of bacterial growth incubated for 90 mins by serial dilution assay; assay type: functional; details: ATCC 29213, 1.5 h
Salmonella typhimurium [29] = experiment: Antibacterial activity against Salmonella enterica serovar typhimurium SL1344 assessed as inhibition of bacterial growth incubated for 90 mins by serial dilution assay; assay type: functional, Salmonella enterica subsp. enterica serovar Typhimurium; details: SL1344, 1.5 h
Escherichia coli [30] = experiment: Bactericidal activity against Escherichia coli ATCC 25922 incubated for 90 mins by serial dilution assay; assay type: functional; details: ATCC 25922, 1.5 h
Cell membrane [31] = experiment: Induction of membrane depolarization in Enterococcus faecalis ATCC 29212 at 0.5 times MIC after 60 mins by DiOC23 dye based based flow cytometry relative to control

CC[C@H](C)[C@H](NC(=O)[C@H](CCCCN)NC(=O)[C@@H]1CCCN1C(=O)[C@@H](NC(=O)[C@H](CC(C)C)NC(=O)[C@H](C)NC(=O)[C@H](Cc1ccccc1)NC(=O)[C@H](Cc1ccccc1)NC(=O)CN)[C@@H](C)CC)C(=O)N[C@H](C(=O)N[C@@H](CO)C(=O)N[C@@H](CO)C(=O)N1CCC[C@H]1C(=O)N[C@@H](CC(C)C)C(=O)N[C@@H](Cc1ccccc1)C(=O)N[C@@H](CCCCN)C(=O)N[C@H](C(=O)N[C@@H](CC(C)C)C(=O)N[C@@H](CC(C)C)C(=O)N[C@@H](CO)C(=O)N[C@@H](C)C(=O)N[C@H](C(=O)O)C(C)C)[C@H](C)O)[C@@H](C)CC
Activity (Escherichia coli [1]): Active | Activity (Cell membrane [2]): 40% | Activity (Cell membrane [3]): Active | Activity (Staphylococcus aureus [4]): Active | Activity (Escherichia coli [5]): Active | Activity (Cell membrane [6]): 40% | Activity (Cell membrane [7]): 40% | Activity (Cell membrane [8]): Active | Activity (Cell membrane [9]): 30% | Activity (Escherichia coli [10]): Active | Activity (Cell membrane [11]): 30% | MBC (Enterococcus faecalis [12]): 7.8 µg/mL (≈ 3.3 µM) | Activity (Cell membrane [13]): Active | Activity (Cell membrane [14]): Active | MBC (Salmonella typhimurium [15]): 125 µg/mL (≈ 52.9 µM) | MBC (Staphylococcus aureus [16]): 15.6 µg/mL (≈ 6.6 µM) | MBC (Staphylococcus aureus [17]): 15.6 µg/mL (≈ 6.6 µM) | MBC (Escherichia coli [18]): 31.3 µg/mL (≈ 13.2 µM) | Activity (Staphylococcus aureus [19]): Active | Activity (Cell membrane [20]): Active | Activity (Cell membrane [21]): Active | Activity (Escherichia coli [22]): Active | Activity (Cell membrane [23]): Active | MIC (Staphylococcus aureus [24]): 7.8 µg/mL (≈ 3.3 µM) | MIC (Escherichia coli [25]): 31.3 µg/mL (≈ 13.2 µM) | MIC (Enterococcus faecalis [26]): 7.8 µg/mL (≈ 3.3 µM) | Activity (Lipid bilayer): Active | MIC (Escherichia coli [27]): 31.3 µg/mL (≈ 13.2 µM) | MIC (Staphylococcus aureus [28]): 7.8 µg/mL (≈ 3.3 µM) | MIC (Salmonella typhimurium [29]): 125 µg/mL (≈ 52.9 µM) | MBC (Escherichia coli [30]): 31.3 µg/mL (≈ 13.2 µM) | Activity (Cell membrane [31]): 40%

Converted amounts (≈) assume the structure as drawn. The source made the active and inactive calls. The rule behind the calls is not given here.
